scFv variants of Ab-14 (light chain) against a SARS-CoV-2 spike peptide

The measurements come from Li et al. 2023 (doi:10.1038/s41467-023-39022-2) through the FLAb antibody collection.

All variants were tested on one target, the spike HR2 peptide PDVDLGDISGINAS (SARS-CoV-2).

Ab-14 is the parent antibody, in scFv form: VH, then a (GGGGS)3 linker, then VL. The heavy chain is unchanged in all variants.
VH: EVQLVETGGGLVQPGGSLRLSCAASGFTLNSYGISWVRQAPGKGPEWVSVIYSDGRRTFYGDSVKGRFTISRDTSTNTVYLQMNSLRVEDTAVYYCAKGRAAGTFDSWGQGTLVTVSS
VL: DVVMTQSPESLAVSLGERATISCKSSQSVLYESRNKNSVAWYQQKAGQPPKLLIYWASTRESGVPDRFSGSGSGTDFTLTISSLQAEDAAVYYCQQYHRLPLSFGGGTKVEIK

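The parent was found by panning a naive human phage display library on the peptide. These sequences belong to a second round, designed from the earlier measurements on random variants of the parent. Their group label is 14L_GP_Gen (GP: Gaussian process model; Gen: genetic algorithm; a sequence that several methods proposed may carry one label only). The scFvs were displayed on barcoded MATa yeast, the peptide on MATalpha yeast. After mating in shaken culture at 30 °C for 16 h, diploids were selected and their barcode pairs sequenced. A regression on co-assayed BCL2-family reference pairs converts the normalised counts of each replicate to an apparent Kd. There are six technical replicates.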

Positions count from residue 1 of the parent VL; S25L puts L in place of S.
The read-out is the apparent dissociation constant on a log10 scale (nM): the lower, the stronger.
Empty control strains, which show no peptide, gave a signal in 4% of pairings with all light chain designs; the median was 2.64 and 95% of these signals were weaker than 1.59. No background was subtracted. Also given: how often the same scFv was detected with the empty control strains, with their mean in brackets.
Of ten entries with the parent sequence, four were seen in most replicates (averages 0.34 to 2.37), three in one and three in none, so single entries are noisy.
A sequence measured in both rounds can read differently, since the two assays cover different ranges.
The authors' rule: three or more of the six replicates give a measured affinity, fewer mean a poor binder.

{"changes": "S25L/L30W/W56S", "log10 Kd, replicates": "0.09 -0.06 -0.17 -0.17 0.13 0.23", "control signals": "0 of 18"}
{"changes": "S25V/V29W/W56N/T59Q/Q96D", "log10 Kd, replicates": "0.14 0.17 0.28 -0.13 0.21 0.28", "control signals": "0 of 18"}
{"changes": "S26E/L30P/W56N/T59Q", "log10 Kd, replicates": "0.50 0.15 0.16 0.19 0.49 0.28", "control signals": "0 of 18"}
{"changes": "S25L/V29E/N35A/W56E", "log10 Kd, replicates": "0.35 -0.61 -0.32 -0.59 -0.53 -0.16", "control signals": "1 of 18 (1.29)"}
{"changes": "S25L/V29D/W56N/T59Q/S62V", "log10 Kd, replicates": "-0.09 -0.01 -0.18 -0.32 -0.24 -0.14", "control signals": "0 of 18"}
{"changes": "S25F/S26Q/V29E/W56N/T59Q/E61L", "log10 Kd, replicates": "0.72 0.29 0.73 0.44 0.55 0.92", "control signals": "0 of 18"}
{"changes": "S25L/V29W/N35M/S38N/W56N/T59Q", "log10 Kd, replicates": "0.48 0.42 0.20 0.23 0.56 0.61", "control signals": "0 of 18"}
{"changes": "S25L/V29A/S38N/W56G", "log10 Kd, replicates": "-0.35 -0.41 -0.53 -0.37 -0.56 -0.40", "control signals": "0 of 18"}
{"changes": "S25L/Q27W/V29M/W56N", "log10 Kd, replicates": "-0.18 0.12 -0.19 -0.09 -0.03 0.05", "control signals": "0 of 18"}
{"changes": "S25I/Y31M/W56E", "log10 Kd, replicates": "-0.38 -0.17 -0.24 -0.28 -0.30 -0.06", "control signals": "0 of 18"}
{"changes": "S25L/S26P/V29Q/L30G/W56N", "log10 Kd, replicates": "0.30 0.24 0.34 0.38 0.26 0.15", "control signals": "2 of 18 (2.87)"}
{"changes": "S25L/L30D/S38A/W56N", "log10 Kd, replicates": "0.22 0.35 0.15 0.21 0.14 0.18", "control signals": "1 of 18 (4.81)"}
{"changes": "S25L/V29Q/W56N/T59Q/E61L", "log10 Kd, replicates": "0.02 0.08 0.21 -0.14 -0.16 0.05", "control signals": "0 of 18"}
{"changes": "S25L/S26P/V29T/W56H/T59Q", "log10 Kd, replicates": "0.10 -0.35 -0.38 -0.49 -0.25 -0.06", "control signals": "0 of 18"}
{"changes": "S25L/S26Q/V29D/W56N/E61L", "log10 Kd, replicates": "-0.09 -0.26 -0.25 -0.34 -0.28 -0.04", "control signals": "0 of 18"}
{"changes": "S25L/S33D/N35M/W56N/T59Q", "log10 Kd, replicates": "0.45 1.01 0.60 0.39 0.81 0.68", "control signals": "0 of 18"}
{"changes": "S25V/L30P/W56N/Q96D", "log10 Kd, replicates": "0.42 0.00 -0.10 -0.19 0.18 -0.01", "control signals": "0 of 18"}
{"changes": "S25L/S26P/V29E/W56N/T59Q/S62Q", "log10 Kd, replicates": "-0.27 -0.11 -0.25 -0.16 0.14 -0.05", "control signals": "1 of 18 (1.41)"}
{"changes": "S25L/S33D/W56N/T59Q/E61L", "log10 Kd, replicates": "-0.02 0.03 -0.19 -0.27 -0.15 -0.01", "control signals": "2 of 18 (3.55)"}
{"changes": "S25F/S26E/W56N/E61M", "log10 Kd, replicates": "-0.03 0.04 -0.30 -0.01 -0.28 0.22", "control signals": "3 of 18 (3.12)"}

Picked from the list: the 2 lowest averages where every replicate gave a value.

{"changes": "S25L/V29A/S38N/W56G", "log10 Kd, replicates": "-0.35 -0.41 -0.53 -0.37 -0.56 -0.40", "control signals": "0 of 18"}
{"changes": "S25L/V29E/N35A/W56E", "log10 Kd, replicates": "0.35 -0.61 -0.32 -0.59 -0.53 -0.16", "control signals": "1 of 18 (1.29)"}